Measurements: patent US20240239814A1, “Complexes Of CU(I) As Antitumor Agents” (priority 2021, published 2024)

Tested on: panel of human tumor cell lines
Assay: Average cytotoxic activity over the cell panel (MTT) compared with reference drugs
Conditions: on average over the cell panel
Experimental: Briefly, depending upon the growth characteristics of the cell line, 3-8×10^3 cells well^−1, were seeded in 96-well microplates in growth medium (100 μL) and then incubated at 37° C. in a 5% carbon dioxide atmosphere. After 24 h, the medium was removed and replaced with a fresh one containing the compound to be studied, at the appropriate concentration, dissolved in 0.9% sodium chloride solution just before use. Triplicate cultures were established for each treatment. After 72 h, each well was treated with 10 μL of a 5 mg mL^−1 MTT saline solution and, after 5 h of incubation, 100 μL of a sodium dodecylsulfate (SDS) solution in 0.01 M HCl were added. After an overnight incubation, the inhibition of cell growth induced by the tested complexes was determined by measuring the absorbance of each well at 570 nm using a Bio-Rad 680 microplate reader. Mean absorbance for each drug dose was expressed as percentage of the control and plotted vs. drug concentration. Dose-response curves were fitted and IC50 values were calculated with four parameter logistic model (4PL).
The cytotoxicity was evaluated by means of the MTT test for 72 h treatment with increasing concentrations of the tested compounds.
Cytotoxic activity was examined against a panel of human tumor cell lines. […] The growth inhibitory effect was evaluated by means of MTT test. […] SD=standard deviation, -=not detected.

Substance: Bis[tris(phenylphosphine)] copper(I) nitrate [Compound 1]
- average cytotoxic activity relative to cisplatin (times more effective than cisplatin): 3.9 times
- average cytotoxic activity relative to oxaliplatin (times more effective than oxaliplatin): 3.1 times
